Assay [1] has as its target T1, α1aAR (Homo sapiens, UniProt P35348).
T1 construct: from tissue; host or cells: human bladder detrusor smooth muscle membranes
T1 sequence (P35348 1-466): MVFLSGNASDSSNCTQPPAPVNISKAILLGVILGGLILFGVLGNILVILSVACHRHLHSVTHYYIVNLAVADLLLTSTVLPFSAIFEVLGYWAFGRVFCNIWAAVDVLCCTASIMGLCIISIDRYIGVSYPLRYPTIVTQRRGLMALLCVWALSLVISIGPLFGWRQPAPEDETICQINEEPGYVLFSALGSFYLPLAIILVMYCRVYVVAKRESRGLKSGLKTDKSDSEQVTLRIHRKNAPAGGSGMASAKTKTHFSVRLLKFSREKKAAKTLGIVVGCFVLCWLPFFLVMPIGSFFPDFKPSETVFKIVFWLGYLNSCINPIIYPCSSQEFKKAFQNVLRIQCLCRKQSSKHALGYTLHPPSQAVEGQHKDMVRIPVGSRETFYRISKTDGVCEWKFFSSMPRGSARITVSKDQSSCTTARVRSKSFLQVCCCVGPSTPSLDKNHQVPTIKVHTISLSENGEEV
In words: BMY7378 competition binding vs [125I]HEAT in human detrusor membranes, low affinity site. The following applies: two-site fit, n=13, read-out: pKi α1aAR (low pKi) (converted). As to the method:
Human detrusor and rat bladder membrane preparation. Human detrusor and rat whole bladder was minced over dry ice, and suspended in cold lysis buffer (5 mM Tris HCl and 5 mM EDTA, pH 7.4) with protease inhibitors benzamidine (10 mg/ml), leupeptin (5 mg/ml), and soybean trypsin inhibitor (10 mg/ml) (Sigma Chemical Company; St. Louis, Mo.). A lysate was prepared with a Polytron PT 3000 (Brinkmann; Westbury, N.Y.) at 10,000 rpm for 10 seconds. After pelleting at 40,000×g for 15 minutes (Sorvall SM24 rotor), membranes were suspended in cold resuspension buffer (150 mM NaCl, 50 mM Tris-HCl, 5 mM EDTA, pH 7.4) with protease inhibitors, and kept on ice for immediate use (or stored at −70° C. for later use). Protein content was determined using the bicinchoninic assay (BCA) with bovine serum albumin (BSA) standards (Pierce; Rockford, Ill.).
(§1) Reaction conditions were as described above. Curves were fit with […] regression analysis using InPlot software (GraphPad).

The target in assay [2] is α1aAR (Homo sapiens, UniProt P35348). As to the kind of experiment: biochemical.
From the text: as §1

As for `COc1ccccc1N1CCN(CCN2C(=O)CC3(CCCC3)CC2=O)CC1` [BMY7378], the values for the Ki on α1aAR [1] and at α1aAR [2] were 12.6 µM and 15.8 µM, respectively.
